Values quoted from earlier work in patent US10028966B2 (Avalyn Pharma Inc., priority 2014, dated 2018).

Test system: patients carrying the ALK fusion gene
Details: nausea, vomiting, or diarrhea; cited from earlier work

C[C@@H](Oc1cc(-c2cnn(C3CCNCC3)c2)cnc1N)c1c(Cl)ccc(F)c1Cl [Crizotinib]
patients with at least one side effect: Approximately 50%
